# Yeast mating assay 1: variants of the scFv Ab-14

Target peptide (SARS-CoV-2 spike, HR2 region): PDVDLGDISGINAS

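The parent was found by panning a naive human phage display library on the peptide. Library AAYL50 holds single substitutions and randomly drawn double and triple substitutions in the CDRs. The assay is AlphaSeq: two haploid yeast populations carry antibody and antigen on their surface. The frequency of each diploid, read from paired DNA barcodes, reflects how well the two displayed proteins bind. Each replicate has its own calibration line, from reference interactions of the BCL2 family. Mating was done three times.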

Parent scFv Ab-14: VH joined to VL by the linker GGGGSGGGGSGGGGS. Changes lie in the light chain CDRs alone.
VH: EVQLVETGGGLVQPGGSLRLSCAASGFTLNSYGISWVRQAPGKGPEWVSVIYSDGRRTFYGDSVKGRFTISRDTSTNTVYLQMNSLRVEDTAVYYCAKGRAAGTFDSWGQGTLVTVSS
VL: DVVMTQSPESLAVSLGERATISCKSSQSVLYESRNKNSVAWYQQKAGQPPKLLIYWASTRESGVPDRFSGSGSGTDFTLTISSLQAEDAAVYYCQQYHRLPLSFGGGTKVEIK

Substitutions are numbered in sequence along the VL above, starting at 1 (not Kabat).
Values are apparent Kd, the geometric mean of the replicates that gave a signal; lower means stronger binding.
A pair that was not seen in any replicate is written "not detected"; this usually means weak binding, but a binder can also be missed.

{"changes": "S25Y/L30Y/S38H", "apparent Kd": "7.8 nM", "replicates with signal": "3 of 3", "signal with controls": "5 of 9"}
{"changes": "V29F/A40R", "apparent Kd": "not detected", "replicates with signal": "0 of 3", "signal with controls": "0 of 9"}
{"changes": "S26G/R99C/P101S", "apparent Kd": "not detected", "replicates with signal": "0 of 3", "signal with controls": "0 of 9"}
{"changes": "K24W/V29Y/R60V", "apparent Kd": "not detected", "replicates with signal": "0 of 3", "signal with controls": "0 of 9"}
{"changes": "S26D/Q27I/N35G", "apparent Kd": "2.6 µM", "replicates with signal": "2 of 3", "signal with controls": "4 of 9"}
{"changes": "R60E/Q96F/L102F", "apparent Kd": "not detected", "replicates with signal": "0 of 3", "signal with controls": "1 of 9"}
{"changes": "S26K/V29E/Q96R", "apparent Kd": "22 nM", "replicates with signal": "3 of 3", "signal with controls": "1 of 9"}
{"changes": "K24D/S33V/L102C", "apparent Kd": "not detected", "replicates with signal": "0 of 3", "signal with controls": "1 of 9"}
{"changes": "V29Q/S58V/Y97T", "apparent Kd": "88 nM", "replicates with signal": "3 of 3", "signal with controls": "1 of 9"}
{"changes": "Q95Y/H98N", "apparent Kd": "150 µM", "replicates with signal": "2 of 3", "signal with controls": "5 of 9"}
{"changes": "N37L/S103E", "apparent Kd": "77 nM", "replicates with signal": "3 of 3", "signal with controls": "0 of 9"}
{"changes": "N35P/R99T/S103K", "apparent Kd": "9.4 µM", "replicates with signal": "3 of 3", "signal with controls": "1 of 9"}
{"changes": "S33L/N35T/L102Q", "apparent Kd": "not detected", "replicates with signal": "0 of 3", "signal with controls": "0 of 9"}
{"changes": "Y31S/E61S/S62A", "apparent Kd": "6.3 nM", "replicates with signal": "3 of 3", "signal with controls": "1 of 9"}
{"changes": "V29G/N37P/A40P", "apparent Kd": "2.0 µM", "replicates with signal": "1 of 3", "signal with controls": "1 of 9"}
{"changes": "T59D/Q95V/S103D", "apparent Kd": "34 µM", "replicates with signal": "1 of 3", "signal with controls": "3 of 9"}
{"changes": "Y31M/V39M/E61Q", "apparent Kd": "28 nM", "replicates with signal": "3 of 3", "signal with controls": "1 of 9"}
{"changes": "V29C/E32K/W56S", "apparent Kd": "20 µM", "replicates with signal": "1 of 3", "signal with controls": "1 of 9"}
{"changes": "K24V/S28P/L102T", "apparent Kd": "190 nM", "replicates with signal": "3 of 3", "signal with controls": "2 of 9"}

Repeated from above, the 3 best binders with a signal in all replicates:

{"changes": "Y31S/E61S/S62A", "apparent Kd": "6.3 nM", "replicates with signal": "3 of 3", "signal with controls": "1 of 9"}
{"changes": "S25Y/L30Y/S38H", "apparent Kd": "7.8 nM", "replicates with signal": "3 of 3", "signal with controls": "5 of 9"}
{"changes": "S26K/V29E/Q96R", "apparent Kd": "22 nM", "replicates with signal": "3 of 3", "signal with controls": "1 of 9"}

As a blank, each scFv also met three strains without target: over library AAYL50, 18% of these pairings were detected, typically at 15 µM and seldom below 970 nM. For each scFv, signals with the empty controls are counted beside the result.
Parent in this assay: reference entry 4.4 nM, copy in this library 48 nM.

The measurements come from Engelhart et al. 2022 (doi:10.1038/s41597-022-01779-4) through the FLAb antibody collection.